Biological target: T1, human Fibroblast activation protein alpha (hFAP) (Homo sapiens, UniProt Q12884)
T1 construct: Proteros, 38-760 (PR-0071); purchased Proteros PR-0071
T1 sequence (Q12884 38-760): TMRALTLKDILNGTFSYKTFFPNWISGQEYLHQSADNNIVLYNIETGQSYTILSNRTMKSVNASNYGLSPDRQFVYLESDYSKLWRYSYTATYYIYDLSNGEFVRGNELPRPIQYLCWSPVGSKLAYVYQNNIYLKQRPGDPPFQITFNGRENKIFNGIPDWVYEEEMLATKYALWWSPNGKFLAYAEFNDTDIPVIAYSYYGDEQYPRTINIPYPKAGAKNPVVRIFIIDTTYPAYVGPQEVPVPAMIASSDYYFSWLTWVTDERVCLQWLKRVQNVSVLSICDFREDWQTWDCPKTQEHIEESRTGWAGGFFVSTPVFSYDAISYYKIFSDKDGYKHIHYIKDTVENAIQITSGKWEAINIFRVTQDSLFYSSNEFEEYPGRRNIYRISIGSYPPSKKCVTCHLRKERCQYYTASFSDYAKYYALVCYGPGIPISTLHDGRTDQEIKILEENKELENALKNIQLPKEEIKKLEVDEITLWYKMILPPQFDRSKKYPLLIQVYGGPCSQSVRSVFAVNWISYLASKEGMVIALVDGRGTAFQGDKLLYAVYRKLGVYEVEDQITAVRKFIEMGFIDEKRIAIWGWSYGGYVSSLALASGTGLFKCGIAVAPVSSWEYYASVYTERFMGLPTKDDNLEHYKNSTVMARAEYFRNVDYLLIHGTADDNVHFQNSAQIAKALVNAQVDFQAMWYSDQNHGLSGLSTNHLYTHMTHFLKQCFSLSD
Assay: hFAP inhibition assay (tight binders)
Type: biochemical
Conditions: Ala-Pro-AMC 20 μM, n = 1 or geometric mean (n = 2-5)
Description: Data were analyzed in Genedata Screener®.

With `N#C[C@@H]1CSCN1C(=O)CNC(=O)c1ccnc2ccc(OCC(F)F)cc12` [Example 2, (R)—N-(2-(4-Cyanothiazolidin-3-yl)-2-oxoethyl)-6-(2,2-difluoroethoxy)quinoline-4-carboxamide] as the molecule, how does the IC50 read?
The IC50 was 0.096 nM.

`Cc1conc1Cc1ccc2nccc(C(=O)NCC(=O)N3CSC[C@H]3C#N)c2c1` [Example 38, (R)—N-(2-(4-Cyanothiazolidin-3-yl)-2-oxoethyl)-6-((4-methylisoxazol-3-yl)methyl)quinoline-4-carboxamide] was tested. Which IC50 did it give?
The IC50 was 0.079 nM.

With `COC(C)c1ccc2nccc(C(=O)NCC(=O)N3CSC[C@H]3C#N)c2c1` (mixture of isomers) [Example 26, N-(2-((R)-4-Cyanothiazolidin-3-yl)-2-oxoethyl)-6-((RS)-1-methoxyethyl)quinoline-4-carboxamide] as the molecule, how does the IC50 read?
The IC50 was 0.45 nM.

How did the IC50 turn out when `CC(c1ccnc(C(F)(F)F)c1)c1ccc2nccc(C(=O)NCC(=O)N3CSC[C@H]3C#N)c2c1` (mixture of isomers) [Example 52, N-(2-((R)-4-Cyanothiazolidin-3-yl)-2-oxoethyl)-6-((RS)-1-(2-(trifluoromethyl)pyridin-4-yl)ethyl)quinoline-4-carboxamide] was run?
Its IC50 is 0.077 nM.

Which IC50 does the source give for `COC(C)(C)c1ccc2nccc(C(=O)NCC(=O)N3CSC[C@H]3C#N)c2c1` [Example 18, (R)—N-(2-(4-Cyanothiazolidin-3-yl)-2-oxoethyl)-6-(2-methoxypropan-2-yl)quinoline-4-carboxamide] here?
Its IC50 is 0.28 nM.

Which IC50 does the source give for `CC(F)(F)COc1ccc2nccc(C(=O)NCC(=O)N3CSC[C@H]3C#N)c2c1` [Example 11, (R)—N-(2-(4-Cyanothiazolidin-3-yl)-2-oxoethyl)-6-(2,2-difluoropropoxy)quinoline-4-carboxamide] here?
Its IC50 is 0.07 nM.

`CCOC1(c2ccc3nccc(C(=O)NCC(=O)N4CSC[C@H]4C#N)c3c2)CCOCC1` [Example 23, (R)—N-(2-(4-Cyanothiazolidin-3-yl)-2-oxoethyl)-6-(4-ethoxytetrahydro-2H-pyran-4-yl)quinoline-4-carboxamide] was tested. Which IC50 did it give?
The IC50 was 0.16 nM.

With `CO[C@H]1C[C@](F)(c2ccc3nccc(C(=O)NCC(=O)N4CSC[C@H]4C#N)c3c2)C1` (single isomer, unassigned) [Example 63, N-(2-((R)-4-Cyanothiazolidin-3-yl)-2-oxoethyl)-6-((1r,3R*)-1-fluoro-3-methoxycyclobutyl)quinoline-4-carboxamide] as the molecule, how does the IC50 read?
Its IC50 is 0.049 nM.

How did the IC50 turn out when `N#C[C@@H]1CSCN1C(=O)CNC(=O)c1ccnc2ccc(C(F)(F)F)cc12` [Example 17, (R)—N-(2-(4-Cyanothiazolidin-3-yl)-2-oxoethyl)-6-(trifluoromethyl)-quinoline-4-carboxamide] was run?
Its IC50 is 0.43 nM.

With `C#CC1(c2ccc3nccc(C(=O)NCC(=O)N4CSC[C@H]4C#N)c3c2)CCOCC1` [Example 57, (R)—N-(2-(4-Cyanothiazolidin-3-yl)-2-oxoethyl)-6-(4-ethynyl-tetrahydro-2H-pyran-4-yl)quinoline-4-carboxamide] as the molecule, how does the IC50 read?
The IC50 was 0.093 nM.

For `N#C[C@@H]1CSCN1C(=O)CNC(=O)c1ccnc2ccc(C3(c4ccc(Cl)cn4)CC3)cc12` [Example 47, (R)-6-(1-(5-Chloropyridin-2-yl)cyclopropyl)-N-(2-(4-cyanothiazolidin-3-yl)-2-oxoethyl)quinoline-4-carboxamide], which IC50 is on record?
Its IC50 is 0.15 nM.

`COCCCOc1ccc(-c2ccc3nccc(C(=O)NCC(=O)N4CSC[C@H]4C#N)c3c2)cc1` [Example 72, (R)—N-(2-(4-Cyanothiazolidin-3-yl)-2-oxoethyl)-6-(4-(3-methoxy-propoxy)phenyl)quinoline-4-carboxamide] was tested. Which IC50 did it give?
The IC50 was 0.026 nM.

With `COCCCc1ccc2nccc(C(=O)NCC(=O)N3CSC[C@H]3C#N)c2c1` [Example 81, (R)—N-(2-(4-cyanothiazolidin-3-yl)-2-oxoethyl)-6-(3-methoxypropyl)quinoline-4-carboxamide] as the molecule, how does the IC50 read?
Its IC50 is 0.097 nM.

Which IC50 does the source give for `N#C[C@@H]1CSCN1C(=O)CNC(=O)c1ccnc2ccc(C3CCOCC3)cc12` [Example 20, (R)—N-(2-(4-Cyanothiazolidin-3-yl)-2-oxoethyl)-6-(tetrahydro-2H-pyran-4-yl)quinoline-4-carboxamide] here?
The IC50 was 0.095 nM.

`N#CCOc1ccc2nccc(C(=O)NCC(=O)N3CSC[C@H]3C#N)c2c1` [Example 10, (R)-6-(Cyanomethoxy)-N-(2-(4-cyanothiazolidin-3-yl)-2-oxoethyl)quinoline-4-carboxamide] was tested. Which IC50 did it give?
Its IC50 is 0.085 nM.

Which IC50 does the source give for `N#C[C@@H]1CSCN1C(=O)CNC(=O)c1ccnc2ccc(C3(C#N)CCCCC3)cc12` [Example 60, (R)-6-(1-Cyanocyclohexyl)-N-(2-(4-cyanothiazolidin-3-yl)-2-oxoethyl)quinoline-4-carboxamide] here?
Its IC50 is 0.037 nM.

Which IC50 does the source give for `N#C[C@@H]1CSCN1C(=O)CNC(=O)c1ccnc2ccc(COCC(F)F)cc12` [Example 36, (R)—N-(2-(4-Cyanothiazolidin-3-yl)-2-oxoethyl)-6-((2,2-difluoroethoxy)methyl)quinoline-4-carboxamide] here?
Its IC50 is 0.24 nM.

Which IC50 does the source give for `N#C[C@@H]1CSCN1C(=O)CNC(=O)c1ccnc2ccc(C3CCCCO3)cc12` (mixture of isomers) [Example 32, N-(2-((R)-4-Cyanothiazolidin-3-yl)-2-oxoethyl)-6-((RS)-tetrahydro-2H-pyran-2-yl)quinoline-4-carboxamide] here?
The IC50 was 0.21 nM.

`N#C[C@@H]1CSCN1C(=O)CNC(=O)c1ccnc2ccc(Cn3cccn3)cc12` [Example 80, (R)-6-((1H-Pyrazol-1-yl)methyl)-N-(2-(4-cyanothiazolidin-3-yl)-2-oxoethyl)quinoline-4-carboxamide] was tested. Which IC50 did it give?
The IC50 was 0.17 nM.

`CCOCc1ccc2nccc(C(=O)NCC(=O)N3CSC[C@H]3C#N)c2c1` [Example 27, (R)—N-(2-(4-cyanothiazolidin-3-yl)-2-oxoethyl)-6-(ethoxymethyl)-quinoline-4-carboxamide] was tested. Which IC50 did it give?
Its IC50 is less than 0.16 nM.

For `COCCc1ccc2nccc(C(=O)NCC(=O)N3CSC[C@H]3C#N)c2c1` [Example 82, (R)—N-(2-(4-cyanothiazolidin-3-yl)-2-oxoethyl)-6-(2-methoxyethyl)quinoline-4-carboxamide], which IC50 is on record?
The IC50 was 0.12 nM.

Which IC50 does the source give for `CC(F)(F)Cc1ccc2nccc(C(=O)NCC(=O)N3CSC[C@H]3C#N)c2c1` [Example 53, (R)—N-(2-(4-Cyanothiazolidin-3-yl)-2-oxoethyl)-6-(2,2-difluoropropyl)quinoline-4-carboxamide] here?
Its IC50 is 0.085 nM.

Which IC50 does the source give for `N#C[C@@H]1CSCN1C(=O)CNC(=O)c1ccnc2ccc(C3(F)CCC3)cc12` [Example 75, (R)—N-(2-(4-Cyanothiazolidin-3-yl)-2-oxoethyl)-6-(1-fluoro-cyclobutyl)quinoline-4-carboxamide] here?
Its IC50 is 0.061 nM.

`CC1(C)CC(Oc2ccc3nccc(C(=O)NCC(=O)N4CSC[C@H]4C#N)c3c2)CCO1` (mixture of isomers) [Example 9, N-(2-((R)-4-Cyanothiazolidin-3-yl)-2-oxoethyl)-6-(((RS)-2,2-dimethyltetrahydro-2H-pyran-4-yl)oxy)quinoline-4-carboxamide] was tested. Which IC50 did it give?
The IC50 was 0.25 nM.

Which IC50 does the source give for `COCCOc1ccc2nccc(C(=O)NCC(=O)N3CSC[C@H]3C#N)c2c1` [Example 4, (R)—N-(2-(4-Cyanothiazolidin-3-yl)-2-oxoethyl)-6-(2-methoxyethoxy)quinoline-4-carboxamide] here?
The IC50 was 0.063 nM.

For `N#C[C@@H]1CSCN1C(=O)CNC(=O)c1ccnc2ccc(CC3CCOC3)cc12` (mixture of isomers) [Example 65, N-(2-((R)-4-Cyanothiazolidin-3-yl)-2-oxoethyl)-6-(((RS)-tetrahydrofuran-3-yl)methyl)quinoline-4-carboxamide], which IC50 is on record?
The IC50 was 0.084 nM.

Which IC50 does the source give for `N#C[C@@H]1CSCN1C(=O)CNC(=O)c1ccnc2ccc(OC(CF)CF)cc12` [Example 7, (R)—N-(2-(4-Cyanothiazolidin-3-yl)-2-oxoethyl)-6-((1,3-difluoropropan-2-yl)oxy)quinoline-4-carboxamide] here?
The IC50 was 0.085 nM.

How did the IC50 turn out when `N#C[C@@H]1CSCN1C(=O)CNC(=O)c1ccnc2ccc(C3(C#N)CC3)cc12` [Example 70, (R)-6-(1-Cyanocyclopropyl)-N-(2-(4-cyanothiazolidin-3-yl)-2-oxoethyl)quinoline-4-carboxamide] was run?
Its IC50 is 0.071 nM.

How did the IC50 turn out when `COCC(OC)c1ccc2nccc(C(=O)NCC(=O)N3CSC[C@H]3C#N)c2c1` (mixture of isomers) [Example 30, N-(2-((R)-4-Cyanothiazolidin-3-yl)-2-oxoethyl)-6-((RS)-1,2-dimethoxyethyl)quinoline-4-carboxamide] was run?
The IC50 was 0.4 nM.

How did the IC50 turn out when `N#C[C@@H]1CSCN1C(=O)CNC(=O)c1ccnc2ccc(OCCF)cc12` [Example 74, (R)—N-(2-(4-Cyanothiazolidin-3-yl)-2-oxoethyl)-6-(2-fluoroethoxy)-quinoline-4-carboxamide] was run?
Its IC50 is 0.07 nM.

How did the IC50 turn out when `N#C[C@@H]1CSCN1C(=O)CNC(=O)c1ccnc2ccc(OC3CCOCC3)cc12` [Example 6, (R)—N-(2-(4-Cyanothiazolidin-3-yl)-2-oxoethyl)-6-((tetrahydro-2H-pyran-4-yl)oxy)quinoline-4-carboxamide] was run?
The IC50 was 0.089 nM.

For `CC1(C)CC(c2ccc3nccc(C(=O)NCC(=O)N4CSC[C@H]4C#N)c3c2)CCO1` (mixture of isomers) [Example 68, N-(2-((R)-4-Cyanothiazolidin-3-yl)-2-oxoethyl)-6-((RS)-2,2-dimethyltetrahydro-2H-pyran-4-yl)quinoline-4-carboxamide], which IC50 is on record?
The IC50 was 0.1 nM.

— US20260070899A1, “N-(2-(4-CYANOTHIAZOLIDIN-3-YL)-2-OXOETHYL)-QUINOLINE-4-CARBOXAMIDES” (AstraZeneca AB, priority 2022, published 2026)
